Assay results reported in patent US11186582B2, “Substituted [1,2,4]triazolo[1,5-a]pyrimidin-7-yl compounds as PDE2 inhibitors” (DART NEUROSCIENCE (CAYMAN) LTD., priority 2014, dated 2021).

Sequences of proteins named here, by UniProt entry; tags and fusion partners are left off. Residues count along the entry.
UniProt O00408, 2-941: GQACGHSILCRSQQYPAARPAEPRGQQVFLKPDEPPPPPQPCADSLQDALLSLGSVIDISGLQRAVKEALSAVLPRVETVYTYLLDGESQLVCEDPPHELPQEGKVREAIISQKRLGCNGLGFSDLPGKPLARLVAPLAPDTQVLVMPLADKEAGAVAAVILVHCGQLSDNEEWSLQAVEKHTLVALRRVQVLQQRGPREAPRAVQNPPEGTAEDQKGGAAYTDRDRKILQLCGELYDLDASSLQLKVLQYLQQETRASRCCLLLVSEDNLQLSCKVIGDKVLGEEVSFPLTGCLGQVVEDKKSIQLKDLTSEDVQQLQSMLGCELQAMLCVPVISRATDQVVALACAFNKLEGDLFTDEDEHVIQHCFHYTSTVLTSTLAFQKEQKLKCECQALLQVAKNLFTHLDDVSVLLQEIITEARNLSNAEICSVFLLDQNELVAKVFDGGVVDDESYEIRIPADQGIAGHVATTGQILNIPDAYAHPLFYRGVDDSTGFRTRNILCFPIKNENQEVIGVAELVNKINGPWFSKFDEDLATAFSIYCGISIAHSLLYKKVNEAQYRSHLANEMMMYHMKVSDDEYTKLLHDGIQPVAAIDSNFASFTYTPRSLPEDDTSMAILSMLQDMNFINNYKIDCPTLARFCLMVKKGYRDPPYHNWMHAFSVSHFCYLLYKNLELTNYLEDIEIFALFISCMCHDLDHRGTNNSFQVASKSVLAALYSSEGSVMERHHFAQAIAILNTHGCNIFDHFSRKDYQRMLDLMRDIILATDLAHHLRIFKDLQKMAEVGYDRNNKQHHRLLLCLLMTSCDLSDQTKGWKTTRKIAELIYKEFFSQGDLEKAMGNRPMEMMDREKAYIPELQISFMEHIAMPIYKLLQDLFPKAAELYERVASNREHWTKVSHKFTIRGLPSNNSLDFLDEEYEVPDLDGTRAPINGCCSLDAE

What follows are molecules tested against FLAG-tagged PDE2A1 (amino acids 2-941) (Homo sapiens (Human), UniProt O00408) (assay: IMAP TR-FRET PDE2A phosphodiesterase enzymatic assay). Conditions: not given.

First: COc1ccc(CN2CCCC(c3cc(C)nc4ncnn34)C2)c(C)c1 (stereo not shown) [Example 85, 1-[(4-Methoxy-2-methylphenyl)methyl]-3-{5-methyl-[1,2,4]triazolo[1,5-a]pyrimidin-7-yl}piperidine]
Second: COc1ccc(CN2CCCC(c3cc(C)nc4ncnn34)C2)c(F)c1 (stereo not shown) [Example 103, 1-[(2-Fluoro-4-methoxyphenyl)methyl]-3-{5-methyl-[1,2,4]triazolo[1,5-a]pyrimidin-7-yl}piperidine]
The IC50 of the first is higher: greater than 10000 nM for the first, 1000 to 10000 nM for the second.

First: COc1ccc(CN2CCCC(c3cc(C)nc4ncnn34)C2)cc1Cl (stereo not shown) [Example 86, 1-[(3-Chloro-4-methoxyphenyl)methyl]-3-{5-methyl-[1,2,4]triazolo[1,5-a]pyrimidin-7-yl}piperidine]
Second: Cc1cc(C2CCCN(Cc3ccc(C)c(Cl)c3)C2)n2ncnc2n1 (stereo not shown) [Example 110, 1-[(3-Chloro-4-methylphenyl)methyl]-3-{5-methyl-[1,2,4]triazolo[1,5-a]pyrimidin-7-yl}piperidine]
The IC50 of the first is higher: 1000 to 10000 nM for the first, 100 to 1000 nM for the second.

`Cc1cc(C2CCCN(Cc3cccc4[nH]ccc34)C2)n2ncnc2n1` (stereo not shown) [Example 87, 4-[(3-{5-Methyl-[1,2,4]triazolo[1,5-a]pyrimidin-7-yl}piperidin-1-yl)methyl]-1H-indole] and `Cc1cc(C2CCCN(Cc3c[nH]c4ccccc34)C2)n2ncnc2n1` (stereo not shown) [Example 99, 3-[(3-{5-Methyl-[1,2,4]triazolo[1,5-a]pyrimidin-7-yl}piperidin-1-yl)methyl]-1H-indole] cannot be ordered by IC50: greater than 10000 nM for the first, greater than 10000 nM for the second.

`COc1cccc(CN2CCCC(c3cc(C)nc4ncnn34)C2)c1` (stereo not shown) [Example 88, 1-[(3-Methoxyphenyl)methyl]-3-{5-methyl-[1,2,4]triazolo[1,5-a]pyrimidin-7-yl}piperidine] and `Cc1cc(C2CCCN(Cc3cccc(OC(C)C)c3)C2)n2ncnc2n1` (stereo not shown) [Example 126, 3-{5-Methyl-[1,2,4]triazolo[1,5-a]pyrimidin-7-yl}-1-{[3-(propan-2-yloxy)phenyl]methyl}piperidine] fall in the same range of IC50: 1000 to 10000 nM for the first, 1000 to 10000 nM for the second.

`Cc1cc(C2CCCN(Cc3ccccc3C)C2)n2ncnc2n1` (stereo not shown) [Example 89, 3-{5-Methyl-[1,2,4]triazolo[1,5-a]pyrimidin-7-yl}-1-[(2-methylphenyl)methyl]piperidine] and `Cc1cc(C2CCCN(Cc3ccccc3F)C2)n2ncnc2n1` (stereo not shown) [Example 111, 1-[(2-Fluorophenyl)methyl]-3-{5-methyl-[1,2,4]triazolo[1,5-a]pyrimidin-7-yl}piperidine] cannot be ordered by IC50: greater than 10000 nM for the first, greater than 10000 nM for the second.

Compared with `Cc1cc(C2CCCN(Cc3ccc(N(C)C)cc3)C2)n2ncnc2n1` (stereo not shown) [Example 90, N,N-Dimethyl-4-[(3-{5-methyl-[1,2,4]triazolo[1,5-a]pyrimidin-7-yl}piperidin-1-yl)methyl]aniline], `COc1ccc(CN2CCCC(c3cc(C)nc4ncnn34)C2)cc1` (stereo not shown) [Example 94, 1-[(4-Methoxyphenyl)methyl]-3-{5-methyl-[1,2,4]triazolo[1,5-a]pyrimidin-7-yl}piperidine] is lower in IC50: greater than 10000 nM for the first, 1000 to 10000 nM for the second. The second is the more potent here.

First: Cc1cc(C2CCCN(Cc3ccc(F)c(F)c3)C2)n2ncnc2n1 (stereo not shown) [Example 91, 1-[(3,4-Difluorophenyl)methyl]-3-{5-methyl-[1,2,4]triazolo[1,5-a]pyrimidin-7-yl}piperidine]
Second: COc1cc(CN2CCCC(c3cc(C)nc4ncnn34)C2)ccc1F (stereo not shown) [Example 117, 1-[(4-Fluoro-3-methoxyphenyl)methyl]-3-{5-methyl-[1,2,4]triazolo[1,5-a]pyrimidin-7-yl}piperidine]
The IC50 of the first is lower: 100 to 1000 nM for the first, 1000 to 10000 nM for the second. The first is the more potent here.

First: Cc1cc(C2CCCN(Cc3ccc(C(F)(F)F)cc3F)C2)n2ncnc2n1 (stereo not shown) [Example 92, 1-{[2-Fluoro-4-(trifluoromethyl)phenyl]methyl}-3-{5-methyl-[1,2,4]triazolo[1,5-a]pyrimidin-7-yl}piperidine]
Second: Cc1cc(C2CCCN(Cc3ccc(Cl)cc3F)C2)n2ncnc2n1 (stereo not shown) [Example 118, 1-[(4-Chloro-2-fluorophenyl)methyl]-3-{5-methyl-[1,2,4]triazolo[1,5-a]pyrimidin-7-yl}piperidine]
The IC50 of the first is lower: 100 to 1000 nM for the first, 1000 to 10000 nM for the second.

First: Cc1cc(C2CCCN(Cc3ccc(C)c(C)c3)C2)n2ncnc2n1 (stereo not shown) [Example 93, 1-[(3,4-Dimethylphenyl)methyl]-3-{5-methyl-[1,2,4]triazolo[1,5-a]pyrimidin-7-yl}piperidine]
Second: Cc1cccc(CN2CCCC(c3cc(C)nc4ncnn34)C2)c1 (stereo not shown) [Example 101, 3-{5-Methyl-[1,2,4]triazolo[1,5-a]pyrimidin-7-yl}-1-[(3-methylphenyl)methyl]piperidine]
The IC50 of the first is lower: 100 to 1000 nM for the first, 1000 to 10000 nM for the second. The first is the more potent here.

First: Cc1cc(F)cc(CN2CCCC(c3cc(C)nc4ncnn34)C2)c1 (stereo not shown) [Example 95, 1-[(3-Fluoro-5-methylphenyl)methyl]-3-{5-methyl-[1,2,4]triazolo[1,5-a]pyrimidin-7-yl}piperidine]
Second: Cc1cc(C2CCCN(Cc3cccc(F)c3)C2)n2ncnc2n1 (stereo not shown) [Example 114, 1-[(3-Fluorophenyl)methyl]-3-{5-methyl-[1,2,4]triazolo[1,5-a]pyrimidin-7-yl}piperidine]
The IC50 of the first is lower: 100 to 1000 nM for the first, 1000 to 10000 nM for the second.

`COc1ccc(C(C)C)cc1CN1CCCC(c2cc(C)nc3ncnn23)C1` (stereo not shown) [Example 96, 1-{[2-Methoxy-5-(propan-2-yl)phenyl]methyl}-3-{5-methyl-[1,2,4]triazolo[1,5-a]pyrimidin-7-yl}piperidine] and `Cc1cc(C2CCCN(Cc3cc(F)ccc3F)C2)n2ncnc2n1` (stereo not shown) [Example 105, 1-[(2,5-Difluorophenyl)methyl]-3-{5-methyl-[1,2,4]triazolo[1,5-a]pyrimidin-7-yl}piperidine] cannot be ordered by IC50: greater than 10000 nM for the first, greater than 10000 nM for the second.

`Cc1cc(C2CCCN(Cc3ccc4c(c3)OCO4)C2)n2ncnc2n1` (stereo not shown) [Example 97, 1-(2H-1,3-Benzodioxol-5-ylmethyl)-3-{5-methyl-[1,2,4]triazolo[1,5-a]pyrimidin-7-yl}piperidine] and `Cc1cc(C2CCCN(Cc3ccc4c(c3)OC(F)(F)O4)C2)n2ncnc2n1` (stereo not shown) [Example 121, 1-[(2,2-Difluoro-2H-1,3-benzodioxol-5-yl)methyl]-3-{5-methyl-[1,2,4]triazolo[1,5-a]pyrimidin-7-yl}piperidine] cannot be ordered by IC50: greater than 10000 nM for the first, greater than 10000 nM for the second.

`Cc1cc(C2CCCN(Cc3ccccc3-c3ccccc3)C2)n2ncnc2n1` (stereo not shown) [Example 98, 3-{5-Methyl-[1,2,4]triazolo[1,5-a]pyrimidin-7-yl}-1-[(2-phenylphenyl)methyl]piperidine] and `Cc1cc(C2CCCN(Cc3coc4ccccc34)C2)n2ncnc2n1` (stereo not shown) [Example 112, 1-(1-Benzofuran-3-ylmethyl)-3-{5-methyl-[1,2,4]triazolo[1,5-a]pyrimidin-7-yl}piperidine] fall in the same range of IC50: 1000 to 10000 nM for the first, 1000 to 10000 nM for the second.

Compared with `Cc1cc(C2CCCN(Cc3ccc(OC(F)F)cc3)C2)n2ncnc2n1` (stereo not shown) [Example 100, 1-{[4-(Difluoromethoxy)phenyl]methyl}-3-{5-methyl-[1,2,4]triazolo[1,5-a]pyrimidin-7-yl}piperidine], `Cc1cc(C2CCCN(Cc3ccc(C(F)(F)F)cc3)C2)n2ncnc2n1` (stereo not shown) [Example 106, 3-{5-Methyl-[1,2,4]triazolo[1,5-a]pyrimidin-7-yl}-1-{[4-(trifluoromethyl)phenyl]methyl}piperidine] is lower in IC50: 1000 to 10000 nM for the first, 100 to 1000 nM for the second.

`Cc1cc(C2CCCN(Cc3ccccc3C(F)(F)F)C2)n2ncnc2n1` (stereo not shown) [Example 102, 3-{5-Methyl-[1,2,4]triazolo[1,5-a]pyrimidin-7-yl}-1-{[2-(trifluoromethyl)phenyl]methyl}piperidine] and `Cc1cc(C2CCCN(Cc3cccc(Cl)c3F)C2)n2ncnc2n1` (stereo not shown) [Example 113, 1-[(3-Chloro-2-fluorophenyl)methyl]-3-{5-methyl-[1,2,4]triazolo[1,5-a]pyrimidin-7-yl}piperidine] fall in the same range of IC50: 1000 to 10000 nM for the first, 1000 to 10000 nM for the second.

First: Cc1cc(C2CCCN(Cc3cc4ccccc4o3)C2)n2ncnc2n1 (stereo not shown) [Example 104, 1-(1-Benzofuran-2-ylmethyl)-3-{5-methyl-[1,2,4]triazolo[1,5-a]pyrimidin-7-yl}piperidine]
Second: Cc1cc(C2CCCN(Cc3csc4ccccc34)C2)n2ncnc2n1 (stereo not shown) [Example 116, 1-(1-Benzothiophen-3-ylmethyl)-3-{5-methyl-[1,2,4]triazolo[1,5-a]pyrimidin-7-yl}piperidine]
The IC50 of the first is lower: 100 to 1000 nM for the first, 1000 to 10000 nM for the second. The first is the more potent here.

First: Cc1cc(C2CCCN(Cc3nc4ccccc4n3C)C2)n2ncnc2n1 (stereo not shown) [Example 107, 1-Methyl-2-[(3-{5-methyl-[1,2,4]triazolo[1,5-a]pyrimidin-7-yl}piperidin-1-yl)methyl]-1H-1,3-benzodiazole]
Second: Cc1cccc(CN2CCCC(c3cc(C)nc4ncnn34)C2)n1 (stereo not shown) [Example 124, 2-Methyl-6-[(3-{5-methyl-[1,2,4]triazolo[1,5-a]pyrimidin-7-yl}piperidin-1-yl)methyl]pyridine]
The IC50 of the first is higher: greater than 10000 nM for the first, 1000 to 10000 nM for the second.

`Cc1cc(C2CCCN(Cc3c[nH]c4ccc(F)cc34)C2)n2ncnc2n1` (stereo not shown) [Example 108, 5-Fluoro-3-[(3-{5-methyl-[1,2,4]triazolo[1,5-a]pyrimidin-7-yl}piperidin-1-yl)methyl]-1H-indole] and `Cc1cc(C2CCCN(Cc3cccc(C)c3C)C2)n2ncnc2n1` (stereo not shown) [Example 115, 1-[(2,3-Dimethylphenyl)methyl]-3-{5-methyl-[1,2,4]triazolo[1,5-a]pyrimidin-7-yl}piperidine] cannot be ordered by IC50: greater than 10000 nM for the first, greater than 10000 nM for the second.

First: Cc1cc(C2CCCN(Cc3c(C)nn(C(C)C)c3C)C2)n2ncnc2n1 (stereo not shown) [Example 122, 1-{[3,5-Dimethyl-1-(propan-2-yl)-1H-pyrazol-4-yl]methyl}-3-{5-methyl-[1,2,4]triazolo[1,5-a]pyrimidin-7-yl}piperidine]
Second: Cc1cc(C2CCCN(Cc3ccc(-c4ccco4)cc3)C2)n2ncnc2n1 (stereo not shown) [Example 125, 1-{[4-(Furan-2-yl)phenyl]methyl}-3-{5-methy-[1,2,4]triazolo[1,5-a]pyrimidin-7-yl}piperidine]
The IC50 of the first is higher: greater than 10000 nM for the first, 100 to 1000 nM for the second. The second is the more potent here.

Same assay, conditions: IMAP TR-FRET, 200 nM FAM-cAMP substrate, 11-point half-log dose-response

For `Cc1cc(C2CCCN(Cc3cnc(-c4ccccc4)s3)C2)n2ncnc2n1` (stereo not shown) [Example 109, 3-{5-Methyl-[1,2,4]triazolo[1,5-a]pyrimidin-7-yl}-1-[(2-phenyl-1,3-thiazol-5-yl)methyl]piperidine], the “PDE2 (pIC50)” value was greater than 7.
With `COc1ccc2cc(CN3CCCC(c4cc(C)nc5ncnn45)C3)ccc2c1` (stereo not shown) [Example 120, 7-(1-((6-Methoxynaphthalen-2-yl)methyl)piperidin-3-yl)-5-methyl-[1,2,4]triazolo[1,5-a]pyrimidine] the “PDE2 (pIC50)” value was greater than 7.
